Measured affinities in a library of Ab-14 heavy chain variants

Binding partner: SARS-CoV-2 spike HR2 peptide, sequence PDVDLGDISGINAS.

Each scFv is VH, three GGGGS repeats, VL, as in the parent Ab-14, and differs from it in the CDRs of the heavy chain only.
VH: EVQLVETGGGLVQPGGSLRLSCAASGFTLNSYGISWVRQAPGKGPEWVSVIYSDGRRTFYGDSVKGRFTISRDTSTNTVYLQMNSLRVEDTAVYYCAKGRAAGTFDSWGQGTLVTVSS
VL: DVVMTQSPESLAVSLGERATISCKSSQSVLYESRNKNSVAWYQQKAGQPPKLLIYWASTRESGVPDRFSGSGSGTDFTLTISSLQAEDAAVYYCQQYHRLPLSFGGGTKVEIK

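The variants were designed computationally from a first round of random CDR variants and then made and measured. Several design methods are mixed in this list. In AlphaSeq, yeast of one mating type display the scFv and yeast of the other type display the target. Mating (16 h, 30 °C) was followed by selection of diploids and sequencing of their barcodes. Each replicate has its own calibration line, from reference interactions of the BCL2 family. Mating was done six times.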

Variants are written as CDR1, CDR2 and CDR3 of the heavy chain (limits as in the source). Parent: GFTLNSYGIS, VIYSDGRRTFYGDSVK, GRAAGTFDS.
The read-out is the apparent dissociation constant on a log10 scale (nM): the lower, the stronger.
An entry "ND" has no value in the source: the pair was not observed among the diploids in that replicate. This suggests poor binding but is not conclusive.
The authors' rule: three or more of the six replicates give a measured affinity, fewer mean a poor binder.

CDR-H1 | CDR-H2 | CDR-H3 | replicates, log10 nM
GFDLNEYGIS | VIYADGQRTAYADSVK | GGNAGTFDM | 0.26 / -0.20 / 0.14 / -0.21 / 0.23 / 0.06
GFDLNEYGIS | VIYADGRRTAYADNVK | GEVAGTFDM | -0.31 / -0.58 / -0.46 / -0.86 / -0.80 / -0.55
GFDLEDYGIS | VIYADGRRTFYADSVK | GENAGTFDL | -0.31 / -0.40 / -0.09 / -0.41 / -0.30 / -0.14
GFTLNSYGYS | VIYSDGRRTFYGDSVK | GRAAGRFDS | ND / ND / ND / ND / ND / ND
GFGLGEYGIS | VIYADGTRAAYVTSVK | GSIAGTFFT | ND / ND / ND / ND / ND / ND
GFTLNDYGIS | VIYSDGRRTFYGDSVK | GRAAGTFEI | ND / 1.62 / ND / 0.72 / 0.52 / 1.10
GFTLNSYGIS | VIYSDGERTFYADSVK | GRTAGTFDS | -0.47 / 0.58 / 1.34 / -0.10 / 0.17 / -0.30
GFTLNSYGIH | VIYADGRRTFYIDSVV | GRAWGTFVS | ND / ND / ND / ND / ND / ND
GFNLNSYGIS | VIYSDGRRTFYGDDVK | GRQAGTFDS | 0.86 / 0.47 / 0.44 / 0.43 / 0.68 / 0.66
GFTLNEYGIS | VIYSDGRRTFYIDSVK | GRADGTFDS | ND / ND / ND / ND / ND / ND
GFDLDEYGIS | VIYADGRRTFYADSVK | GTNAGTFIS | ND / ND / ND / ND / ND / ND
GFTLNSYGIS | VIYSDGRRTFYGDSVK | GRAAGHKDS | ND / ND / ND / ND / ND / ND
GFTLNSYGIS | VIYSDGRRTFYGDSVR | GRATSTFDS | ND / ND / ND / ND / ND / ND
GFQLNSYGIS | VIYSDGRRTFYADQVK | GTAAGTFDS | 0.77 / 0.50 / 0.48 / 0.34 / 0.84 / 0.63
GFELNTYGIS | VIYSDGRRTFYGDSVK | GKTAGTFDS | ND / ND / ND / 1.12 / ND / ND
GFTLNSYGIS | VIYSDGCRTFYGDSVK | GRLAGTFDS | ND / 2.39 / 2.83 / 2.61 / ND / ND
GFDLNEYGIS | VIYADGRRTFYADSVK | GQNAGTFTV | 0.30 / -0.14 / -0.61 / -0.11 / 0.20 / -0.21
GFTLNSYGIS | VIYADGKRTFYGDSVK | GRAAGTFDT | -0.05 / 0.19 / -0.09 / 0.02 / -0.21 / 0.20
GFELNSYGIS | VIYSDGRRTFYGDSVK | GQAAVTFDS | ND / ND / ND / ND / ND / ND
GFTLNSYGIS | VIYSDGRRTFYGNSVK | GRAAGTFDC | ND / ND / ND / ND / ND / ND
GFGLNEYGIS | VIYADGVRTAYLQNVK | GINSGFDQT | ND / ND / ND / ND / ND / ND
GFSLNGYGIS | VIYSDGRRTAYGDSVK | GRAAGTFDS | ND / ND / 0.90 / -0.05 / 0.61 / -0.27
GFTLNEYGIS | VIYSDGRRTFYGDSVK | GRQAGTFES | ND / 1.85 / ND / 1.88 / 1.15 / 2.25
GYSLDDYGIS | VIYADGKRKSYAEDVK | GNVGGSFMD | 3.60 / ND / ND / ND / ND / ND
GFSLNDYGIS | VIYSDGRRTFYADSVK | GRAAGTFDK | ND / ND / ND / ND / ND / ND
GFTLNSYGIS | VIYSDGRRTFYGDSVK | GRATGTFNS | ND / ND / 2.62 / ND / ND / ND
GFTLNEYGIS | VIYSDGRREFYGRSVK | GRAAVTTDQ | ND / ND / ND / ND / ND / ND
GFDLNEYGIS | VIYADGQRTAYTDSVK | GEAAGTFDL | -0.08 / -0.20 / -0.41 / -0.36 / -0.17 / 0.09
GFQLNSYGIS | VIYSDGRRTFYADSVK | GQVAGTFDS | 0.09 / -0.16 / -0.25 / -0.55 / 0.04 / 0.57
GFSLDEYGIS | VIYADGNRQEYIDAVK | GNYGGDFNE | ND / ND / 0.85 / ND / ND / ND
GFDLNEYGIS | VIYADGMRTAYADDVK | GQVAGTFDI | -0.11 / -0.40 / -0.48 / -0.54 / -0.51 / -0.41
GFDLDEYGIS | VIYADGRRTAYTDSVK | GTNAGTFDV | 0.77 / -1.38 / -1.04 / -1.55 / ND / -0.53
GFDLDEYGIS | VIYADGSRTAYADSVK | GNTAGTFDV | 0.70 / 0.10 / 0.09 / -0.26 / -0.04 / 0.00
GFVLDEYGIS | VIYADGHRRAYADKVK | GMHMGSFQH | ND / 2.90 / ND / ND / ND / ND
GFDLEDYGIS | VIYADGRRTFYADSVK | GNVAGTFDK | 0.68 / 0.35 / 0.53 / 0.44 / 0.73 / 0.46
GFDLNSYGIS | VIYSDGEREFYGDSVV | GVAAGTFDS | ND / ND / 2.35 / 1.14 / 1.71 / 2.70
GFTLNSYGIS | VIYSDGRRTFYGDSVK | GRVAGTPFV | ND / ND / ND / ND / ND / ND
GFDLNEYGIS | VIYADGRRTSYADSVK | GQLAGTFDL | -0.43 / -0.62 / -0.84 / -0.77 / -0.96 / -0.65
GFTLNEYGIS | VIYSDGRRTRYGDSVK | GRAAVTFDQ | ND / ND / ND / ND / ND / ND

The first 2 variants above that were never detected:

| CDR-H1 | CDR-H2 | CDR-H3 | replicates, log10 nM |
|---|---|---|---|
| GFTLNSYGYS | VIYSDGRRTFYGDSVK | GRAAGRFDS | ND / ND / ND / ND / ND / ND |
| GFGLGEYGIS | VIYADGTRAAYVTSVK | GSIAGTFFT | ND / ND / ND / ND / ND / ND |

Values of this round are not directly comparable with the first-round values of the same sequences.
Nonspecific signal, from three strains lacking the peptide, appeared in 1% of pairings of all heavy chain designs, centred on 2.08 (5% of these signals below 0.84); values are not corrected for it.

Source: Li et al. 2023 (doi:10.1038/s41467-023-39022-2), MIT Lincoln Laboratory and A-Alpha Bio; data file from the FLAb repository.